In patent US20100330033A1, “Protein-carrier conjugates” (priority 2009, published 2010):

Settings: for Stability of εN-mPEG10000-αN-Laurate-Lysine-Phenylalanine (%), calculated from αN-Laurate-Lysine-Phenylalanine released: 0.5 mM

εN-mPEG-αN-Laurate-Lysine-Phenylalanine
Rate (%/day) (Buffer pH 5, 37° C.): 2.51 %/day | Concentration of Lauric acid in the Stability Sample (Buffer pH 5, Initial, 37° C.): 0.50% | Concentration of Phenylalanine in the Stability Sample (Buffer pH 5, Initial, 37° C.): 0.50% | Stability of εN-mPEG10000-αN-Laurate-Lysine-Phenylalanine (%), calculated from αN-Laurate-Lysine-Phenylalanine released (Buffer pH 5, Initial, 37° C.): 100% | Concentration of Lauric acid in the Stability Sample (Buffer pH 5, Week 1, 37° C.): 0.47% | Concentration of Phenylalanine in the Stability Sample (Buffer pH 5, Week 1, 37° C.): 0.50% | Stability of εN-mPEG10000-αN-Laurate-Lysine-Phenylalanine (%), calculated from αN-Laurate-Lysine-Phenylalanine released (Buffer pH 5, Week 1, 37° C.): 98.8% | Concentration of Lauric acid in the Stability Sample (Buffer pH 5, Week 2, 37° C.): 0.53% | Concentration of Phenylalanine in the Stability Sample (Buffer pH 5, Week 2, 37° C.): 0.51% | Stability of εN-mPEG10000-αN-Laurate-Lysine-Phenylalanine (%), calculated from αN-Laurate-Lysine-Phenylalanine released (Buffer pH 5, Week 2, 37° C.): 79.9% | Concentration of Lauric acid in the Stability Sample (Buffer pH 5, Week 3, 37° C.): 0.55% | Concentration of Phenylalanine in the Stability Sample (Buffer pH 5, Week 3, 37° C.): 0.54% | Stability of εN-mPEG10000-αN-Laurate-Lysine-Phenylalanine (%), calculated from αN-Laurate-Lysine-Phenylalanine released (Buffer pH 5, Week 3, 37° C.): 14.2% | Rate (%/day) (Buffer pH 7, 37° C.): 2.18 %/day | Concentration of Lauric acid in the Stability Sample (Buffer pH 7, Initial, 37° C.): 0.50% | Concentration of Phenylalanine in the Stability Sample (Buffer pH 7, Initial, 37° C.): 0.50% | Stability of εN-mPEG10000-αN-Laurate-Lysine-Phenylalanine (%), calculated from αN-Laurate-Lysine-Phenylalanine released (Buffer pH 7, Initial, 37° C.): 100% | Concentration of Lauric acid in the Stability Sample (Buffer pH 7, Week 1, 37° C.): 0.46% | Concentration of Phenylalanine in the Stability Sample (Buffer pH 7, Week 1, 37° C.): 0.50% | Stability of εN-mPEG10000-αN-Laurate-Lysine-Phenylalanine (%), calculated from αN-Laurate-Lysine-Phenylalanine released (Buffer pH 7, Week 1, 37° C.): 72.2% | Concentration of Lauric acid in the Stability Sample (Buffer pH 7, Week 2, 37° C.): 0.52% | Concentration of Phenylalanine in the Stability Sample (Buffer pH 7, Week 2, 37° C.): 0.53% | Stability of εN-mPEG10000-αN-Laurate-Lysine-Phenylalanine (%), calculated from αN-Laurate-Lysine-Phenylalanine released (Buffer pH 7, Week 2, 37° C.): 40.5% | Concentration of Lauric acid in the Stability Sample (Buffer pH 7, Week 3, 37° C.): 0.54% | Concentration of Phenylalanine in the Stability Sample (Buffer pH 7, Week 3, 37° C.): 0.60% | Stability of εN-mPEG10000-αN-Laurate-Lysine-Phenylalanine (%), calculated from αN-Laurate-Lysine-Phenylalanine released (Buffer pH 7, Week 3, 37° C.): 4.7% | Rate (%/day) (Buffer pH 8, 37° C.): 2.84 %/day | Concentration of Lauric acid in the Stability Sample (Buffer pH 8, Initial, 37° C.): 0.50% | Concentration of Phenylalanine in the Stability Sample (Buffer pH 8, Initial, 37° C.): 0.50% | Stability of εN-mPEG10000-αN-Laurate-Lysine-Phenylalanine (%), calculated from αN-Laurate-Lysine-Phenylalanine released (Buffer pH 8, Initial, 37° C.): 100% | Concentration of Lauric acid in the Stability Sample (Buffer pH 8, Week 1, 37° C.): 0.44% | Concentration of Phenylalanine in the Stability Sample (Buffer pH 8, Week 1, 37° C.): 0.50% | Stability of εN-mPEG10000-αN-Laurate-Lysine-Phenylalanine (%), calculated from αN-Laurate-Lysine-Phenylalanine released (Buffer pH 8, Week 1, 37° C.): 63.9% | Concentration of Lauric acid in the Stability Sample (Buffer pH 8, Week 2, 37° C.): 0.53% | Concentration of Phenylalanine in the Stability Sample (Buffer pH 8, Week 2, 37° C.): 0.48% | Stability of εN-mPEG10000-αN-Laurate-Lysine-Phenylalanine (%), calculated from αN-Laurate-Lysine-Phenylalanine released (Buffer pH 8, Week 2, 37° C.): 40.5% | Concentration of Lauric acid in the Stability Sample (Buffer pH 8, Week 3, 37° C.): 0.59% | Concentration of Phenylalanine in the Stability Sample (Buffer pH 8, Week 3, 37° C.): 0.58% | Stability of εN-mPEG10000-αN-Laurate-Lysine-Phenylalanine (%), calculated from αN-Laurate-Lysine-Phenylalanine released (Buffer pH 8, Week 3, 37° C.): 26.5% | specific hydrolysis rate, based on the releasing rate of αN-Laurate-Lysine-Phenylalanine (across the pH range from 5.0 to 8.0, 37° C.): less than 3 % per day | stability of both carbamide bonds (laurate-lysine and lysine-phenylalanine) under the stress conditions (up to 3 weeks, pH range 5.0 to 8.0, 37° C.): very stable

Like-named read-outs stand apart in the source and are kept apart here.
